The structures appear in SMILES notation. Out of some 10,000 compounds screened, about 15 (0.1%) were called active.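 Rule for the calls: active = highest signal at least 8 times the median of untreated cell-only control wells at some dose; inactive = the rest.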 These entries were drawn from the full list.

By UniProt entry, the sequences of proteins in these tests, tags left out. Chains listed by the source or under a name are the forms on record and can include a tag or linker.
UniProt P13569, with tags, fused parts or gaps F508del: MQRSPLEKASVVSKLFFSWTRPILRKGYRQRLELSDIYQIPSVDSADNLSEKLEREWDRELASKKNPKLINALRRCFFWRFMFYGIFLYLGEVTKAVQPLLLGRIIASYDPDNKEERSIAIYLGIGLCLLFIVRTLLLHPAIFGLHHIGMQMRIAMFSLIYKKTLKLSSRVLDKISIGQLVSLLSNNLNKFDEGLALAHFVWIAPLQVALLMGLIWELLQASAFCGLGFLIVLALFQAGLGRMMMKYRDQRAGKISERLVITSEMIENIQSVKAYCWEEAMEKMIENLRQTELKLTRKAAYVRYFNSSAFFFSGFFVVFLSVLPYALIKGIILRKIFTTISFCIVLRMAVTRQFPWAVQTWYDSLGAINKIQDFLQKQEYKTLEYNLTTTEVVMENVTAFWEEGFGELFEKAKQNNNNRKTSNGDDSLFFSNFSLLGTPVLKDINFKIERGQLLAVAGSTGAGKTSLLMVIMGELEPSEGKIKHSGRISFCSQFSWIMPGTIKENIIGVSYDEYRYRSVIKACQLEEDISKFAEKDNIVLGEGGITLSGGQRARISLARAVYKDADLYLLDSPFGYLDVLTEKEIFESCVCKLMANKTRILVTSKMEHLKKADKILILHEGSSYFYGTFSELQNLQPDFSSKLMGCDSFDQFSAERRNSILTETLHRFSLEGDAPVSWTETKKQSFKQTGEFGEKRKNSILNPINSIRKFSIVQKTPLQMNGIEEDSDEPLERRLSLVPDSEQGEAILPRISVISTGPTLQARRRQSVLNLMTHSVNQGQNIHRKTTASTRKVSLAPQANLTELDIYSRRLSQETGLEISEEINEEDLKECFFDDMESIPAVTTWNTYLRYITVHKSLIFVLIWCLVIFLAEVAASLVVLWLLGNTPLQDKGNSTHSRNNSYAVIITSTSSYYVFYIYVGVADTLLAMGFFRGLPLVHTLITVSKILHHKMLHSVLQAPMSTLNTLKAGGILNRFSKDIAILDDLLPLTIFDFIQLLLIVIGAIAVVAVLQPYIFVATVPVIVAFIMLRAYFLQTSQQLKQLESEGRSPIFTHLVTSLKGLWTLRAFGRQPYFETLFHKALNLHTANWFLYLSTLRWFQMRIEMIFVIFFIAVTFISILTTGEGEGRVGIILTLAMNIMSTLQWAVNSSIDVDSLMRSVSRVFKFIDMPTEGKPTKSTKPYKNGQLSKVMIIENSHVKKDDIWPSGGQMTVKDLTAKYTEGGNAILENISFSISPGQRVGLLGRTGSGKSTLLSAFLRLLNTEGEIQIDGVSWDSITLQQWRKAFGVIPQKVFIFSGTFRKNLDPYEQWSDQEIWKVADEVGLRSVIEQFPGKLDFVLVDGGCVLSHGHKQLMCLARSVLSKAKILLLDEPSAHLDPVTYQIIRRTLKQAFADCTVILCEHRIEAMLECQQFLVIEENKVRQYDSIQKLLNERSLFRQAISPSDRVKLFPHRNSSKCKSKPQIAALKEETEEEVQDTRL

Test [1] in a line: compounds raising F508del-CFTR protein level – cell-based, HeLa F508del-CFTR, immunofluorescence, viability, primary screen (AID 1224863).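 For fold increase: total CFTR protein by anti-CFTR immunofluorescence in fixed cells.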 Particulars: immunofluorescence total CFTR, 24 h, stronger effect = higher value; min viability: measured here: HeLa viability, alamarBlue, dose 20, library dosed in µg/mL unless noted; viability: measured here: primary viability 10 ug/mL, library dosed in µg/mL unless noted. Background: Resazurin is reduced to fluorescent resorufin, in cell work by metabolically active cells.

The target of test [2] is Cystic fibrosis transmembrane conductance regulator (Homo sapiens) (UniProt P13569). The test is described as above. To be noted: immunofluorescence total CFTR, 24 h; fold increase: measured here: primary screen 10 ug/mL, library dosed in µg/mL, stronger effect = higher value unless noted; max fold increase: dose 10, library dosed in µg/mL, stronger effect = higher value unless noted; outcome: library dosed in µg/mL unless noted.

As for `CCCCOCCCNS(=O)(=O)c1ccc(S(=O)(=O)C(F)F)cc1`, in test [1], the viability – broadly, a read-out of living cells in per cent, often relative to untreated cells – came out at 80%. Further, in test [2], the fold increase was found to be 0.94 and the compound was classed as inactive.

For `Cc1ccsc1C(=O)N1CCN(S(=O)(=O)N(C)C2CCCCC2)CC1`, in test [1], the viability was determined as 83%. Further, in test [2], the fold increase is 0.92 and the compound was called inactive.

Turning to `O=C1c2ccccc2C(O)(c2ccc(Cl)cc2)N1CCSCc1ccco1` (stereo not drawn), the viability in test [1] was 77%. Also, in test [2], the fold increase came out at 0.9 and the result was inactive.

Consider `Cn1cc(S(=O)(=O)NC2(c3ccc4c(c3)OCCO4)CCCC2)c(=O)n(C)c1=O`, for which the viability in test [1] came out at 94%. In test [2], the fold increase turned out to be 1.05 and the call was inactive.

With `O=C(NC1CCCCCC1)C1CC=CCC1` (stereo not drawn), the viability in test [1] is 96%. Moreover, in test [2], the fold increase worked out at 1.02 and the outcome was inactive.

In the case of `O=c1c2ccccc2nnn1COc1ccccc1Cl`, in test [1], the viability is 116%. In test [2], the fold increase was determined as 0.98 and the compound was called inactive.

Consider `CCOCCSc1nnc(-c2ccccc2)n1C`, for which the viability in test [1] worked out at 106%. In addition, in test [2], the fold increase amounted to 1.04 and the compound was classed as inactive.

Regarding `Fc1ccc2sc(CNc3ccc4nnnn4n3)cc2c1`, the viability in test [1] is 105%. Also, in test [2], the fold increase came out at 1.2 and the compound was classed as inactive.

On to `CCN(CC)C(=O)C(C)NC(=O)c1c(C)oc(-n2cccc2)c1C#N` (stereo not drawn), for which the viability in test [1] is 90%. Also, in test [2], the fold increase came to 0.95 and the result was inactive.

`Cc1noc(C)c1CN1CCCC(NS(C)(=O)=O)C1` (stereo not drawn): in test [1], the viability came out at 110%. In test [2], the fold increase is 1.04 and the result was inactive.

Take `CC(C)n1nnnc1SCc1ccc([N+](=O)[O-])cc1`: the viability in test [1] came to 91%. Also, in test [2], the fold increase was 0.94 and the call was inactive.

For `Clc1ccc(CN2CCN(c3ccc(Br)cn3)CC2)s1`, the viability in test [1] was 105%. Besides, in test [2], the fold increase is 1.02 and the compound was called inactive.

On to `O=C(NCCc1ccccc1F)NC1CCSc2ccccc21` (stereo not drawn), for which the viability in test [1] turned out to be 95%. Further, in test [2], the fold increase came out at 1.02 and the outcome was inactive.

For the compound `COc1ccccc1-c1noc(CSC23CC4CC(CC(C4)C2)C3)n1`, the viability in test [1] was 70%. In test [2], the fold increase was 0.79 and the call was inactive.

In the case of `O=S(=O)(Nc1ccc2c(c1)OCCO2)c1cc(F)cc(F)c1`, in test [1], the viability came out at 97%. In test [2], the fold increase amounted to 0.92 and the call was inactive.

In the case of `O=C(NCCc1ccc2c(c1)OCCO2)NCc1cccnc1OC1CCCC1`, the viability in test [1] was 91%. Also, in test [2], the fold increase is 0.85 and the call was inactive.

As to `CCC1CCC2(CC1)NC(=O)N(CC(=O)NCC1CCCO1)C2=O` (stereo not drawn), the viability in test [1] stood at 102%. In addition, in test [2], the fold increase was found to be 0.98 and the outcome was inactive.

Take `Cc1[nH]c2ccccc2c1C(=O)C(C)OC(=O)C12CC3CC(C1)CC(c1ccccc1)(C3)C2` (stereo not drawn): the viability in test [1] amounted to 85%. In addition, in test [2], the fold increase came out at 0.91 and the result was inactive.

`CC(C)c1ccc(C(NC(=O)CN2C(=O)NC(C)(c3ccc4c(c3)OCO4)C2=O)C(C)C)cc1` (stereo not drawn): the viability in test [1] is 81%. In test [2], the fold increase amounted to 0.84 and the compound was classed as inactive.

On to `Cn1nnn(CN2CCN(c3ccccc3)CC2)c1=S`, for which the viability in test [1] was determined as 101%. Moreover, in test [2], the fold increase came out at 1.1 and the outcome was inactive.

Turning to `CNc1nnc(Sc2nc3cc(C)nn3c3ccccc23)s1`, the viability in test [1] came out at 97%. Moreover, in test [2], the fold increase is 1.1 and the outcome was inactive.

`CN(CC(=O)NC(=O)NCCC1=CCCCC1)Cc1ccc(Cl)s1`: the viability in test [1] is 85%. In addition, in test [2], the fold increase was 0.92 and the call was inactive.

Consider `C#CCOc1ccc(CNC(C)c2ccc(Br)cc2)cc1OCC` (stereo not drawn), for which the viability in test [1] worked out at 76%. Besides, in test [2], the fold increase worked out at 0.94 and the result was inactive.

With `CN(Cc1ccccc1Cl)Cn1ncn(-c2cccc(Cl)c2)c1=S`, in test [1], the viability came to 105%. In test [2], the fold increase was 1.04 and the compound was classed as inactive.

With `Cn1ccnc1COc1ccc(C(=O)O)cc1`, the viability in test [1] is 89%. In addition, in test [2], the fold increase came to 1.02 and the result was inactive.

Consider `Cc1cc(-c2nccn2C)c(=O)[nH]n1`, for which the viability in test [1] worked out at 99%. In test [2], the fold increase stood at 1.08 and the call was inactive.

Consider `Cc1cc(NC(=O)N2CCN(C(=O)OC(C)(C)C)CC2)no1`, for which the viability in test [1] is 102%. Also, in test [2], the fold increase was 1.12 and the call was inactive.

`CC(C)CN1C(=O)c2ccc([N+](=O)[O-])cc2C1=O`: the viability in test [1] is 88%. Besides, in test [2], the fold increase worked out at 0.89 and the compound was classed as inactive.

On to `O=C1NC2(CCCCCC2)C(=O)N1CN1CCCCCCC1`, for which the viability in test [1] is 76%. In test [2], the fold increase stood at 0.99 and the call was inactive.

Regarding `Cc1cccc2nc(CSc3ccc4ccccc4n3)cc(=O)n12`, in test [1], the viability worked out at 83%. In test [2], the fold increase was 1.04 and the call was inactive.

Consider `O=[N+]([O-])c1cn(Cc2cn(-c3ccccc3)nc2-c2ccc(Cl)cc2)cn1`, for which, in test [1], the viability stood at 103%. In test [2], the fold increase was found to be 1.3 and the compound was classed as inactive.

In the case of `O=C(COc1cc(Cl)c(Cl)cc1Cl)N1CCN(C(=O)C2CCCO2)CC1` (stereo not drawn), the viability in test [1] came to 99%. In addition, in test [2], the fold increase amounted to 0.97 and the call was inactive.

As for `CCN(CC)S(=O)(=O)c1ccc(S(=O)(=O)Nc2nc3ccccc3nc2N2CCCC2)cc1`, the viability in test [1] was determined as 92%. In test [2], the fold increase stood at 1.04 and the call was inactive.

With `Cc1nnc(COC(=O)C2=Cc3ccccc3OC2)o1`, in test [1], the viability was 102%. In addition, in test [2], the fold increase is 1.03 and the result was inactive.

Regarding `CN(C)C(=O)c1ccc(N2CCOC2=O)cc1`, in test [1], the viability worked out at 97%. In test [2], the fold increase was 0.98 and the result was inactive.

For the compound `CCCCn1c(N)c(N(C)C(=O)CCS(=O)(=O)CC(C)C)c(=O)[nH]c1=O`, the viability in test [1] stood at 103%. In addition, in test [2], the fold increase was 1 and the compound was called inactive.

For `CN1CCC(CNC(=O)C23CC4CC(CC(Cl)(C4)C2)C3)c2ccccc21` (stereo not drawn), the viability in test [1] is 77%. In test [2], the fold increase is 1.08 and the call was inactive.

On to `CC(c1nc2ccccc2s1)N(C)CN1C(=O)C2CC=CCC2C1=O` (stereo not drawn), for which, in test [1], the viability is 91%. Moreover, in test [2], the fold increase worked out at 1.02 and the call was inactive.

As for `COC(=O)/C=C/c1ccc(OCC(=O)c2ccc(OC(F)F)cc2)c(OC)c1`, in test [1], the viability turned out to be 94%. For the same compound, in test [2], the fold increase was determined as 1.05 and the compound was classed as inactive.

Take `CCOc1c(Br)cc(CNC(C)C2CCCO2)cc1Br` (stereo not drawn): in test [1], the viability stood at 99%. In addition, in test [2], the fold increase turned out to be 1.09 and the compound was classed as inactive.

In the case of `Cc1cc(C(C)(C)C)ccc1Oc1ccc2nnnn2n1`, the viability in test [1] is 71%. Further, in test [2], the fold increase was 1 and the compound was called inactive.

The record behind these values is PubChem BioAssay AID1224863 (Southern Research Institute, 2016).
